Target: p38α (Homo sapiens, UniProt Q16539)
Test: P38α enzyme inhibition assay (ATF-2 phosphorylation ELISA)
Type: biochemical
Details: activated p38α, substrate ATF-2, ATP 100 μM, 60 minutes incubation, photometric readout 405 nm; read-out: Kinase assay IC50
Experimental: P38α Enzyme Inhibition Assay:
First the microtiter plates are coated using a dilution of ATF-2, substrate of p38α. Each step is followed by a threefold washing step. As the substrate doesn't cover the whole surface, blocking buffer is used to capture the free binding sites. In the meantime, the test compounds are diluted using the kinase buffer, which contains ATP [100 μM], phosphatase-inhibitors and the activated p38α.
The different dilutions of the test compounds are pipetted on the plate. ATP and the compounds compete for the enzyme's binding site. During an incubation time of 60 minutes ATF-2 is dual phosphorylated at Thr 69/71 by p38α kinase depending on its degree of inhibition. Next the first antibody is added into the wells. This antibody binds specifically at dual phosphorylated ATF-2 (Thr 69/71). Secondary antibody, that is conjugated with alkaline phosphatase, binds at the first one. Finally 4-NPP is given in the wells and after an incubation under cover of darkness it is photometrically analysed (405 nm).

Protein sequences, listed by entry. Tags and fused reporters are not part of them.
UniProt Q16539, whole entry: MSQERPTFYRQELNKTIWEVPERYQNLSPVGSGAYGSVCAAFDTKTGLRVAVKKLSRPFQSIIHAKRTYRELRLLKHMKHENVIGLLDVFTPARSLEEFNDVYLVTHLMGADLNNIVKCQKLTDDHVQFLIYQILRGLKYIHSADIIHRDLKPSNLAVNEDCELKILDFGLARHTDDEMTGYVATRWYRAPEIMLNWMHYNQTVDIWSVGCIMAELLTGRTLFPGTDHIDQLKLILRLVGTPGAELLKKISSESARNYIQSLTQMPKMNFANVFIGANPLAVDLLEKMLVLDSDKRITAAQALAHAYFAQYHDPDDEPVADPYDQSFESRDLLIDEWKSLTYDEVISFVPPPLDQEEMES

## 3-(4-(4-Fluorophenyl)-5-(2-(3-methylbutan-2-ylamino)pyridin-4-yl)-1H-imidazol-2-ylthio)propane-1-ol [Example 8j]
  IC50: 12 nM

From patent US8143294B2, “2-sulfanyl-substituted imidazole derivatives and their use as cytokine inhibitors” (priority 2007, dated 2012)
